The values below come from patent US9890152B2 (Genentech, Inc., priority 2012, dated 2018).

By UniProt entry, the sequences of proteins in these tests, tags left out. Residues count along the entry.
UniProt P00533, 25-1210 T790M/L858R limits assumed: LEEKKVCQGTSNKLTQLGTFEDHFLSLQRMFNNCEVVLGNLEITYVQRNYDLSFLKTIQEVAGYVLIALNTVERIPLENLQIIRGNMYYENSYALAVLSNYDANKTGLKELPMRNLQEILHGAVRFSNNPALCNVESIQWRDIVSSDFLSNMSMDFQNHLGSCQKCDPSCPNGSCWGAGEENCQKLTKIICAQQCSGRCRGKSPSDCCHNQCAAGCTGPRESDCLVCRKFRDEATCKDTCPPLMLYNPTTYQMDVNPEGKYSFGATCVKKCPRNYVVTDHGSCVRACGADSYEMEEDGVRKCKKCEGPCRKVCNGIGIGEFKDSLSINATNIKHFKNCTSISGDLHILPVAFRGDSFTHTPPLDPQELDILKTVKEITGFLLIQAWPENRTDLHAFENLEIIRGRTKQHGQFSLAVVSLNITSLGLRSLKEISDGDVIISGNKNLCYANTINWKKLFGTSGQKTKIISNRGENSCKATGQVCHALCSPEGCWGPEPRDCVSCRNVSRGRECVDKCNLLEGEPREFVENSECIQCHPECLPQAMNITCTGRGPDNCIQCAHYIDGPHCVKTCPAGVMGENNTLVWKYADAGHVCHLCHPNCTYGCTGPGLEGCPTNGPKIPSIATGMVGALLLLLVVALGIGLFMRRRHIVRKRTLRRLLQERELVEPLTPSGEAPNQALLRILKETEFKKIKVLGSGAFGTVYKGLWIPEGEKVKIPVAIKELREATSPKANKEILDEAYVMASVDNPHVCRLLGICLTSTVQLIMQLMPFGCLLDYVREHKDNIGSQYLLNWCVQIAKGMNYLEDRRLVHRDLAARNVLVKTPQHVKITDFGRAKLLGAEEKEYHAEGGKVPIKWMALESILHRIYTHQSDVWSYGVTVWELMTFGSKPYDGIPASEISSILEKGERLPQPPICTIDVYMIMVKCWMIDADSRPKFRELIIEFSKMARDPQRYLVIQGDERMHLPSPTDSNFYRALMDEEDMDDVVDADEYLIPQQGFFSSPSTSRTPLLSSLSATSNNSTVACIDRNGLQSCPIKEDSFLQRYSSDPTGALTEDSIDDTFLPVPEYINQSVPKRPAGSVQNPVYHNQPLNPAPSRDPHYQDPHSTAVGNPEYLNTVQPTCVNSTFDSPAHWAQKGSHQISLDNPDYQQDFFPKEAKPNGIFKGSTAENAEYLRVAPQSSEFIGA

This experiment concerns the target EGFR T790M L858R (Homo sapiens, UniProt P00533, L858R/T790M). Briefly: biochemical. As to conditions: EGFR(T790M/L858R) Ki (μM), 5 μM ATP, 30 min, room temperature; apparent Ki (Morrison) converted by Cheng-Prusoff, Km of ATP 1.3 μM.

Where a name gives a salt, the structure may show the parent alone.

`COC1CCN(c2nccc(Nc3cc4c(cn3)ncn4C(C)C(F)(F)F)n2)CC1` (stereo not shown) [Example 157, [2-(4-Methoxypiperidin-1-yl)pyrimidin-4-yl]-[1-(2,2,2-trifluoro-1-methylethyl)-1H-imidazo[4,5-c]pyridin-6-yl]amine formate salt]: the Ki came to 0.0281 µM.

Regarding `CC(C)n1cnc2cnc(Nc3ccnc(N4CCC(C(C)(C)C(N)=O)CC4)n3)cc21` [Example 158], the Ki came out at 0.452 µM.

As to `CC(C)n1cnc2cnc(Nc3ccnc(N4CCc5ncn(C)c5C4)n3)cc21` [Example 159, (1-Isopropyl-1H-imidazo[4,5-c]pyridin-6-yl)-[2-(3-methyl-3,4,6,7-tetrahydroimidazo[4,5-c]pyridin-5-yl)pyrimidin-4-yl]amine], the Ki was determined as 0.354 µM.

Regarding `Cc1nc2cnc(Nc3ccnc(N4CC=CCC4)n3)cc2n1C(C)C` [Example 160, [2-(3,6-Dihydro-2H-pyridin-1-yl)-pyrimidin-4-yl]-(1-isopropyl-2-methyl-1H-imidazo[4,5-c]pyridin-6-yl)amine], the Ki was 0.0693 µM.

As for `CC(C)n1cnc2cnc(Nc3ccnc(N4CCC(OCCN(C)C)CC4)n3)cc21` [Example 161, {2-[4-(2-Dimethylaminoethoxy)piperidin-1-yl]pyrimidin-4-yl}-(1-isopropyl-1H-imidazo[4,5-c]pyridin-6-yl)amine], the Ki is 0.577 µM.

In the case of `CC(C)n1cnc2cnc(Nc3ccnc(N4CCC(CCN(C)C)CC4)n3)cc21` [Example 162, {2-[4-(2-Dimethylaminoethyl)-piperidin-1-yl]pyrimidin-4-yl}-(1-isopropyl-1H-imidazo[4,5-c]pyridin-6-yl)amine], the Ki came out at 1.17 µM.

For the molecule `COC1CCN(c2nccc(Nc3cc4c(cn3)nc(C)n4C(C)(C)C)n2)CC1` [Example 163, (1-tert-butyl-2-methyl-1H-imidazo[4,5-c]pyridin-6-yl)-[2-(4-methoxypiperidin-1-yl)pyrimidin-4-yl]amine], the Ki worked out at 0.0175 µM.

Consider `CC(C)n1cnc2cnc(Nc3ccnc(C4CCN(S(C)(=O)=O)CC4)n3)cc21` [Example 165, (1-Isopropyl-1H-imidazo[4,5-c]pyridin-6-yl)-[2-(1-methanesulfonylpiperidin-4-yl)pyrimidin-4-yl]amine], for which the Ki is 0.614 µM.

Turning to `CC(C)n1cnc2cnc(Nc3ccnc(NCC(C)(C)O)n3)cc21` [Example 166], the Ki was found to be 0.569 µM.

As to `CC(C)n1cnc2cnc(Nc3ccnc(NCC4CC4)n3)cc21` [Example 167], the Ki was 0.205 µM.

Consider `CC(C)n1cnc2cnc(Nc3ccnc(N4CCCC(O)C4)n3)cc21` (stereo not shown) [Example 168], for which the Ki amounted to 0.311 µM.

In the case of `CC(C)n1cnc2cnc(Nc3ccnc(N4CCOC(C(N)=O)C4)n3)cc21` (stereo not shown) [Example 169], the Ki turned out to be 0.148 µM.

On to `CC(C)n1cnc2cnc(Nc3ccnc(N4CCN5CCCCC5C4)n3)cc21` (stereo not shown) [Example 170], for which the Ki amounted to 0.229 µM.

Take `CC(C)n1cnc2cnc(Nc3ccnc(N4CCCNC(=O)C4)n3)cc21` [Example 171]: the Ki turned out to be 0.604 µM.

As for `CC(C)n1cnc2cnc(Nc3ccnc(N4CCN(CCO)CC4)n3)cc21` [Example 172], the Ki was found to be 0.503 µM.

For the molecule `CC(C)n1cnc2cnc(Nc3ccnc(N(C)CC4CCCO4)n3)cc21` (stereo not shown) [Example 173], the Ki came out at 0.709 µM.

As for `COCCN1CCN(c2nccc(Nc3cc4c(cn3)ncn4C(C)C)n2)CC1` [Example 174], the Ki was 0.573 µM.

Regarding `CC(C)n1cnc2cnc(Nc3ccnc(NC4CCCC(O)C4)n3)cc21` (stereo not shown) [Example 175], the Ki was 0.508 µM.

Turning to `CC(C)n1cnc2cnc(Nc3ccnc(N4CC5CC4C5)n3)cc21` [Example 176], the Ki was 0.279 µM.

For the molecule `CC(C)n1cnc2cnc(Nc3ccnc(N4CCC(CN5CCCC5=O)CC4)n3)cc21` [Example 177], the Ki amounted to 1.35 µM.

As for `CC(=O)N1CCC(Nc2nccc(Nc3cc4c(cn3)ncn4C(C)C)n2)CC1` [Example 178], the Ki stood at 1.05 µM.

With `CNC(=O)C1(C)CN(c2nccc(Nc3cc4c(cn3)ncn4C(C)C)n2)CCO1` (stereo not shown) [Example 179], the Ki was 0.164 µM.

Consider `CC1CN(c2nccc(Nc3cc4c(cn3)ncn4C(C)C)n2)CCN1C(=O)OC(C)(C)C` (stereo not shown) [Example 180], for which the Ki is 0.31 µM.

Consider `CC(C)n1cnc2cnc(Nc3ccnc(N4CCN(C(=O)OC(C)(C)C)CC4)n3)cc21` [Example 181], for which the Ki came to 0.118 µM.

Consider `COC1C2CCC1N(c1nccc(Nc3cc4c(cn3)ncn4C(C)C)n1)C2` (stereo not shown) [Example 182], for which the Ki came out at 0.542 µM.

With `CNC(=O)C1CCN(c2nccc(Nc3cc4c(cn3)ncn4C(C)C)n2)C1` (stereo not shown) [Example 183], the Ki is 1.64 µM.

With `CC(=O)N1CCCN(c2nccc(Nc3cc4c(cn3)ncn4C(C)C)n2)CC1` [Example 184], the Ki was 1.08 µM.

Take `CC(C)n1cnc2cnc(Nc3ccnc(N4CCC(F)(F)C4)n3)cc21` [Example 185]: the Ki came out at 0.191 µM.

As to `CC(C)n1cnc2cnc(Nc3ccnc(N4CC5C(C4)C5C(N)=O)n3)cc21` (stereo not shown) [Example 186], the Ki came out at 0.248 µM.

For the molecule `CC(C)n1cnc2cnc(Nc3ccnc(N4CCC(CO)CC4)n3)cc21` [Example 187], the Ki was 0.136 µM.

As to `CC(C)n1cnc2cnc(Nc3ccnc(N4CC5(CCCCO5)C4)n3)cc21` [Example 188], the Ki amounted to 0.816 µM.

For the molecule `CC(C)n1cnc2cnc(Nc3ccnc(N4CCN(C5CC5)CC4)n3)cc21` [Example 189], the Ki worked out at 1.17 µM.

Take `CC(C)n1cnc2cnc(Nc3ccnc(N4CC(F)C(F)C4)n3)cc21` (stereo not shown) [Example 190]: the Ki stood at 0.122 µM.

In the case of `CC(C)n1cnc2cnc(Nc3ccnc(N4CC5CC4CC5F)n3)cc21` (stereo not shown) [Example 191], the Ki worked out at 0.0708 µM.

For `CC(C)n1cnc2cnc(Nc3ccnc(N4CCC5(CCNC5=O)C4)n3)cc21` (stereo not shown) [Example 192], the Ki is 1.28 µM.

In the case of `COC(C)(C)CNc1nccc(Nc2cc3c(cn2)ncn3C(C)C)n1` [Example 193], the Ki stood at 0.702 µM.

For the molecule `CC(C)n1cnc2cnc(Nc3ccnc(N4CCC5OCCC5C4)n3)cc21` (stereo not shown) [Example 194], the Ki came out at 0.216 µM.

For `CC(C)n1cnc2cnc(Nc3ccnc(N4CCC5OCCC5C4)n3)cc21` (stereo not shown) [Example 195], the Ki was 0.181 µM.

As for `CNC(=O)C1C2CN(c3nccc(Nc4cc5c(cn4)ncn5C(C)C)n3)CC21` (stereo not shown) [Example 196], the Ki is 1.03 µM.

For the molecule `CNC(=O)C1CN(c2nccc(Nc3cc4c(cn3)ncn4C(C)C)n2)C1` [Example 197], the Ki amounted to 1.8 µM.

Take `CC(C)n1cnc2cnc(Nc3ccnc(N4CC(C(=O)N5CCOCC5)C4)n3)cc21` [Example 198]: the Ki was found to be 1.24 µM.

Turning to `CC(C)n1cnc2cnc(Nc3ccnc(N4CCC(CC(=O)N(C)C)CC4)n3)cc21` [Example 199], the Ki amounted to 0.734 µM.

For the molecule `CC(C)n1cnc2cnc(Nc3ccnc(N4CCCC(O)CC4)n3)cc21` (stereo not shown) [Example 200], the Ki amounted to 1.19 µM.

Take `CC(C)n1cnc2cnc(Nc3ccnc(N4CCC(N(C)C(=O)OC(C)(C)C)C4)n3)cc21` (stereo not shown) [Example 201]: the Ki was 1.22 µM.

As for `CNC(=O)C1(C)CCN(c2nccc(Nc3cc4c(cn3)ncn4C(C)C)n2)CC1` [Example 202], the Ki turned out to be 0.429 µM.

Consider `CC(C)n1cnc2cnc(Nc3ccnc(N4CCCC4CO)n3)cc21` (stereo not shown) [Example 203], for which the Ki was 0.422 µM.

On to `CCN1CCC(CN(C)c2nccc(Nc3cc4c(cn3)ncn4C(C)C)n2)C1` (stereo not shown) [Example 204], for which the Ki turned out to be 1.86 µM.

As for `CC(C)n1cnc2cnc(Nc3ccnc(N4CCN5CCCC5C4)n3)cc21` (stereo not shown) [Example 205], the Ki stood at 1.16 µM.

For the molecule `CC(C)n1cnc2cnc(Nc3ccnc(NCC4CCCOC4)n3)cc21` (stereo not shown) [Example 206], the Ki turned out to be 0.975 µM.

`CC(C)n1cnc2cnc(Nc3ccnc(N4CCN(CCN(C)C)CC4)n3)cc21` [Example 207]: the Ki came out at 1.55 µM.

Take `CC(C)n1cnc2cnc(Nc3ccnc(NCC4CCOCC4)n3)cc21` [Example 208]: the Ki amounted to 1.02 µM.

Turning to `CC1CN(c2nccc(Nc3cc4c(cn3)ncn4C(C)C)n2)CC1O` (stereo not shown) [Example 209], the Ki worked out at 0.379 µM.

On to `CC1CCN(CCNc2nccc(Nc3cc4c(cn3)ncn4C(C)C)n2)CC1` [Example 210], for which the Ki turned out to be 1.35 µM.

With `CC(C)n1cnc2cnc(Nc3ccnc(N4CCOC5(CCOC5)C4)n3)cc21` (stereo not shown) [Example 211], the Ki was found to be 0.551 µM.

As to `CC(C)n1cnc2cnc(Nc3ccnc(N4CC5CCOC5C4)n3)cc21` (stereo not shown) [Example 212], the Ki stood at 0.643 µM.

Regarding `CC(C)n1cnc2cnc(Nc3ccnc(N4CC5(CCCOC5)C4)n3)cc21` [Example 213], the Ki was 0.812 µM.

Turning to `CC(C)n1cnc2cnc(Nc3ccnc(N4C5CCC4C(C(N)=O)C5)n3)cc21` (stereo not shown) [Example 214], the Ki is 1.17 µM.

In the case of `CC(C)n1cnc2cnc(Nc3ccnc(N4CCC(C)(O)C4)n3)cc21` (stereo not shown) [Example 215], the Ki was 0.832 µM.

On to `CC(C)n1cnc2cnc(Nc3ccnc(N4CC5CC5C4)n3)cc21` (stereo not shown) [Example 216], for which the Ki worked out at 0.443 µM.

As to `CC(C)n1cnc2cnc(Nc3ccnc(N4CCC5CC54)n3)cc21` (stereo not shown) [Example 217], the Ki stood at 0.758 µM.

`CC(C)n1cnc2cnc(Nc3ccnc(N4CC5COCC5C4)n3)cc21` (stereo not shown) [Example 218]: the Ki stood at 0.353 µM.

On to `CC(C)n1cnc2cnc(Nc3ccnc(N4CCC(CN)C4)n3)cc21` (stereo not shown) [Example 219], for which the Ki was found to be 1.78 µM.

On to `CC(C)n1cnc2cnc(Nc3ccnc(N4CCC(CN)CC4)n3)cc21` [Example 220], for which the Ki was 0.843 µM.

As to `CCNc1nccc(Nc2cc3c(cn2)ncn3C(C)C)n1` [Example 221], the Ki turned out to be 1.05 µM.

Regarding `CC(C)n1cnc2cnc(Nc3ccnc(N4CCC5(CC4)CNC5)n3)cc21` [Example 222], the Ki came out at 1.69 µM.

For the molecule `CC(C)n1cnc2cnc(Nc3ccnc(N4CC5(CCCNC5)C4)n3)cc21` [Example 223], the Ki came out at 1.46 µM.

Regarding `CC(C)n1cnc2cnc(Nc3ccnc(N4CCC5(CCNCC5)C4)n3)cc21` [Example 224], the Ki worked out at 1.78 µM.

As for `CC(C)n1cnc2cnc(Nc3ccnc(N4CCCC5(CCCN5)CC4)n3)cc21` (stereo not shown) [Example 225], the Ki was 0.998 µM.

Take `CC(C)n1cnc2cnc(Nc3ccnc(N4CCC5(CCCCN5)C4)n3)cc21` (stereo not shown) [Example 226]: the Ki was 1.25 µM.

For `CC(C)n1cnc2cnc(Nc3ccnc(N4CCC5(CCNCC5)CC4)n3)cc21` [Example 227], the Ki amounted to 1.58 µM.
